This assay addresses T1, Mouse PPARγ (Mus musculus, UniProt P37238).
T1 construct: endogenous in cells; host or cells: 3T3-L1 fibroblasts
Nature of the assay: Mouse PPARγ assay (TransAM PPARγ ELISA, 3T3-L1 fibroblasts). Format: cell-based. The note with it: 72 hrs, Compound 1 50 μM, Rosiglitazone 10 μM. As to the method:
The assay was designed as in the reference, Blood, 104(5), 1361-8, 2004, the disclosure of which is incorporated by reference for the teaching of the assay.
3T3-L1 fibroblasts were seeded in 6-well plates at a density of 4×10^4 cells/well and cultured in DMEM containing 10% calf serum. […] The plates were incubated for 72 hrs at 37° C. in a CO2 incubator with fresh medium containing test substances added after first 48 hrs. After 72 hrs, the medium was removed; the cell layer was washed and processed for the PPARγ assay as per the instruction of the manufacturer (Active Motif, North America, California, USA). PPARγ activation was determined using 96-well ELISA assay as per the instruction manual (TransAM PPARγ. Active Motif, Cat 0.40196).
A general note: ELISA stands for enzyme-linked immunosorbent assay.

The chains behind the UniProt entries cited, without tags or fusion partners.
UniProt P37238, whole entry: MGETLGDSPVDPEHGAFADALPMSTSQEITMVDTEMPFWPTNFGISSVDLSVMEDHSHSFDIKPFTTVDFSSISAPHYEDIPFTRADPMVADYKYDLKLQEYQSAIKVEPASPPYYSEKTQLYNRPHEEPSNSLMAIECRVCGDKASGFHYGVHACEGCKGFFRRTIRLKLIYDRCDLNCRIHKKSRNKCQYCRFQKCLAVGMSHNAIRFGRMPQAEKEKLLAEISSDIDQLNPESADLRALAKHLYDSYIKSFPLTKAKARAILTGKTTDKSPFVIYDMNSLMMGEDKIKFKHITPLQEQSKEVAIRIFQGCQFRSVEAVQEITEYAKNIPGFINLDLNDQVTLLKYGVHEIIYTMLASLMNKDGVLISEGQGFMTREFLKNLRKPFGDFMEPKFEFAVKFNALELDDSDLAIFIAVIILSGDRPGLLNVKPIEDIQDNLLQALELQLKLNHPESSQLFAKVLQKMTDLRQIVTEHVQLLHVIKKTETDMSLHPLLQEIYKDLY

The values that follow come from patent publication US8349862B2, “Pyridine derivatives for the treatment of metabolic disorders related to insulin resistance or hyperglycemia” (Piramal Healthcare Limited, priority 2006, dated 2013).

In the case of `CN(CCOc1ccc(CC2SC(=O)NC2=O)cc1)c1ccccn1` (stereo not shown) [Rosiglitazone, reference compound], the “PPARγ activity (% of rosiglitazone)” value is recorded as 100 % of rosiglitazone.
